Data: patent publication US20070020267A1 (published 2007)

Amino acid sequences for entries named in this document (tags omitted). Chains listed by the source or under a name are the forms on record and can include a tag or linker.
UniProt P15692, other isoform, or with tags, fused parts or gaps: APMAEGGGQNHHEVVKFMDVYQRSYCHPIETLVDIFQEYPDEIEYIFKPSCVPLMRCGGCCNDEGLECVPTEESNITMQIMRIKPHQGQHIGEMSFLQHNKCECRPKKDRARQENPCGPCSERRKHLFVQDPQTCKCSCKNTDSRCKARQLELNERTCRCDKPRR

Molecular target: human VEGF (hVEGF) (human, UniProt P15692 27-191)
Assay: competition

IC50: 0.01 nM
B1: G6-23 Fab (Fab, V domains shown)
VH: EVQLVESGGGLVQPGGSLRLSCAASGFTISDYWIHWVRQAPGKGLEWVAGITPAGGYTYYADSVKGRFTISADTSKNTAYLQMNSLRAEDTAVYYCARFVFFLPYAMDYWGQGTLVTVSS
VL: DIQMTQSPSSLSASVGDRVTITCRASQDVSTAVAWYQQKPGKAPKLLIYSASFLYSGVPSRFSGSGSGTDFTLTISSLQPEDFATYYCKQGYANPWTFGQGTKVEIKR
